The entries are a selection whose mix differs from that of the whole data set. Results filed as inconclusive are left out. Calls of active or inactive are those of the source. The call rests on the fitted dose curve; tested in A549 cells.
On the % scale 0 is the no-effect control and ±100 the full control effect.

This assay in a line: qHTS for Stage-Specific Inhibitors of Vaccinia Orthopoxvirus: Venus Reporter Primary qHTS. Further: nearly all actives have a fitted effect of over 30% in size. To be noted: Vaccinia virus Venus reporter expression, fluorescence; at 36.5 µM (top of the series). In general terms: In qHTS, concentration-response curves come from the screen itself.
For the compound `CN(CCCl)CCCl`, the activity change, negative = inhibition was inactive: -12.2%.

`CCC(=O)N(c1ccccc1)C1(COC)CCN(CCn2nnn(CC)c2=O)CC1`: the activity change, negative = inhibition is inactive: -11.3%.

With `CCC(=O)N(c1ccccc1)C1(COC)CCN(CCc2cccs2)CC1`, the activity change, negative = inhibition was inactive: -4.27%.

These data come from PubChem BioAssay AID720580 (National Center for Advancing Translational Sciences (NCATS), 2013).
